Here are results for one compound from PMC2697495 (The Journal of pharmacy and pharmacology, 2008).

This assay has as its target T1, endogenous β-glucuronidase, pooled human liver microsomes (Homo sapiens, UniProt P08236).
T1 sequence (P08236 23-651): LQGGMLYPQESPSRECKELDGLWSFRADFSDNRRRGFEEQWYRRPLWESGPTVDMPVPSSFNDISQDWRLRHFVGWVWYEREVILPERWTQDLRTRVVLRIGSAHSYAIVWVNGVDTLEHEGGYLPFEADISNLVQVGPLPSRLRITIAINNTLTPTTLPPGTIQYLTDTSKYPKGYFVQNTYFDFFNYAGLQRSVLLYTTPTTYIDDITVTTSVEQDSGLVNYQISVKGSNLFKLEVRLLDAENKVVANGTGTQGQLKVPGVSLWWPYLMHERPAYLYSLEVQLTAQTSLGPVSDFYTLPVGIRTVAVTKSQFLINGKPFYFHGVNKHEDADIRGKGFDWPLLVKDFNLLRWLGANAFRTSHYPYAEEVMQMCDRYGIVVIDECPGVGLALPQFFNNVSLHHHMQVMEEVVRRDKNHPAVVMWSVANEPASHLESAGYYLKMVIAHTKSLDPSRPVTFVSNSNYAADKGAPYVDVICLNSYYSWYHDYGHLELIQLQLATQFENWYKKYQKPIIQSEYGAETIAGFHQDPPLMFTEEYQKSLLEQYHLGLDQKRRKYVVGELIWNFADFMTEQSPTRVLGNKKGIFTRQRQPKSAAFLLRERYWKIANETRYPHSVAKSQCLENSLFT
The assay can be described thus: Estradiol glucuronide hydrolysis. The note with it: tissue microsomes; 10 mM saccharolactone.

Each structure is given as a SMILES string.

For `O=C(O)[C@@H](O)[C@H]1OC(=O)[C@H](O)[C@H]1O` [saccharolactone, D-saccharic acid 1,4-lactone], the “effect in preventing estradiol glucuronide degradation” value was “minimal effect”.
